Earlier results in patent US20230081539A1, “SUPRACHOROIDAL DELIVERY OF DRUG PARTICLES TO REDUCE TOXICITY” (The Johns Hopkins University, priority 2020, published 2023).

Conditions: cited from earlier work

**Q.** Which water solubility does the source give for “3,6-diamino-10-methylacridinium chloride mixed with 3,6-acridinediamine [ACF]” here?
**A.** highly water soluble
